Our source for the IC50 values is BindingDB's records for doi:10.1021/jm0602256 (Wyeth Research, 2007).

As usually defined, the IC50 is the midpoint of a concentration-inhibition curve. A high value points to a need for much substance.

The target of this assay is P-selectin (Homo sapiens) (UniProt P16109). As to the kind of experiment: Inhibition of P-selectin-mediated adhesion of HL60 cells.

As for `O=C(O)Cc1cccc(-c2cc(CCCCCCc3ccc(O[C@H]4O[C@H](CO)[C@@H](O)[C@H](O)[C@@H]4O)c(-c4cccc(CC(=O)O)c4)c3)ccc2O[C@H]2O[C@H](CO)[C@@H](O)[C@H](O)[C@@H]2O)c1` [TBC-1269], the IC50 came to 70 µM.
